Chains of the proteins cited; added tags and fusions are not shown.
UniProt P33535, whole entry, looked up: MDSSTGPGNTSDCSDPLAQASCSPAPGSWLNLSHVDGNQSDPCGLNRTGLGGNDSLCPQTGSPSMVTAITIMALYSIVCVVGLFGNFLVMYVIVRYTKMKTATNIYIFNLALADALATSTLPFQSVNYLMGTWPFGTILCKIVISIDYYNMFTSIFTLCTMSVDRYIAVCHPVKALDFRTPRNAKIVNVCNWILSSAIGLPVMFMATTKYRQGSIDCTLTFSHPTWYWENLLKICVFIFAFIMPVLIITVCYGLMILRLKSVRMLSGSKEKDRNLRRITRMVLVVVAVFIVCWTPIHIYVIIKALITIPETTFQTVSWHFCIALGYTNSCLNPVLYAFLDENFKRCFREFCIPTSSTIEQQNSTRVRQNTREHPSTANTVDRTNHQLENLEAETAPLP

According to ChEMBL document CHEMBL1159017, “Akuammine and dihydroakuammine, two indolomonoterpene alkaloids displaying affinity for opioid receptors” (J Nat Prod, 1992):

Biological target: Mu-type opioid receptor (Rattus norvegicus, UniProt P33535)
Test: Displacement of [3H]DAMGO from mu opioid receptor in rat central nervous system membrane

Work on CN(C(=O)Cc1ccc(Cl)c(Cl)c1)C1CCCCC1N1CCCC1 (stereo unspecified) yielded an IC50 of 1 nM.
